Literature values in patent US20160052846A1, “METHOD OF DEMULSIFYING AND PURIFYING ORGANIC PRODUCTS FROM AN EMULSION” (CODEXIS, INC., priority 2012, published 2016).
Like-named read-outs stand apart in the source and are kept apart here.

butan-1-ol [Butanol]
Water sol (g per 100 g) (at 15° C.): 9 at 15 °C g per 100 g

butan-2-ol [2-butanol]
Water sol (g per 100 g) (at 20° C.): 12.5 at 20 °C g per 100 g
